Here are results for 1 substance from US8404279B2, “Method for improving the bud quality of a plant” (Bayer CropScience AG, priority 2007, dated 2013).

The data set concerns pear trees (Conference cultivar). The settings on record: after the applications in 2004. The source says:
During the 2004 trial, three products were compared in an arbitrary block design with 10 trees per plot in four repeats: the observations were made on the 8 trees inside the plot. […] The applications were in the post-flower period at an interval of 10 days.
In 2005, the same applications were repeated on the same trees.

Take potassium phosphonate: the phytotoxicity result is listed as “some phytotoxicity”.
